How the values were obtained:
[1] = molecular target: rat liver microsomes (RLM); assay: Inhibition of aumolertinib metabolism in rat liver microsomes (screen, IC50, Ki); conditions: Lineweaver-Burk secondary plot
[2] = tested on: human liver microsomes (HLM); assay: Inhibition of aumolertinib metabolism in human liver microsomes (IC50, Ki); type: in vitro ADME

What does the source list for `CCCc1nc2c(C)cc(-c3nc4ccccc4n3C)cc2n1Cc1ccc(-c2ccccc2C(=O)O)cc1` [Telmisartan]?
Ki [1]: 13.5 µM; inhibition mechanism [2]: mixed (non-competitive and uncompetitive); Ki ([2]; Lineweaver-Burk secondary plot): 77.2 µM
